An excerpt weighted towards active compounds, which were near 1.2% of everything screened.
Pemphigus Ab inh: inhibitors of pemphigus antibody binding to human desmoglein-3; binding (percent of control), % at 10 µM; DSG3-coupled beads, scFv-anti-DSG3-GFP binding, flow cytometry; active compounds read low; AID 588358; hit rate 0.48% among 310,000;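 active means binding more than 3 SD below its plate's average and above zero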;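 further: hits lower antibody fragment binding to DSG3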
Arrestin-AP2 inh: inhibitors of human beta-arrestin and AP2 interaction | FITC-arrestin peptide / GST-AP2 beads, flow cytometry; AP2 beta2 appendage carries R879A mutation | inhibition, % at 10 µM | hit rate 0.31% among 340,000 | AID 504490;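 active means inhibition above a set limit, near 3 SD of compounds lacking own fluorescence, cut at about 54% in these data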;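 further: plate controls were DMSO wells for no effect and 5 µM unlabelled arrestin peptide for full effect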
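System: GST-AP2 R879A bound to glutathione beads, E. coli-expressed. Also added: 50 nM FITC-arrestin peptide. Schedule: compound with beads 12 min RT, then probe 1 h RT. Signal: bead flow cytometry, FITC channel. Read-out basis: percent response.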
Rce1 inh: blocks yeast Ras-converting enzyme | calls only | yeast membranes, quenched prenylated peptide cleavage fluorescence | Q03530 | hit rate 0.27% among 290,000;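 active means fall in fluorescence gain of 50% or more versus controls, with final raw signal at or below 3038400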;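 further: plate controls were neutral control wells for no effect and wells lacking membranes for full effect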
UUG fidelity: yeast start codon fidelity modulation. S. cerevisiae UUG-firefly luciferase reporter, luminescence/redox ratio. activity score, % at 18.7 µM. 0.13% of 350,000 active;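 active means replicate mean at a twofold rise or more, about +100% in these data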;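 further: firefly luciferase made from a UUG start codon reports start codon fidelity; reporter light over untreated wells divided by growth signal over untreated wells; some hits fall short of that in this replicate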
TbMetRS inhib: Trypanosoma brucei MetRS inhibition; purified T. brucei MetRS, ATP depletion, Kinase-Glo luminescence; inhibition, % at 11.9 µM; hit rate 0.4% among 360,000; AID 624268;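 active means inhibition above a per-plate cutoff of the control wells' mean inhibition plus 3 SD, cut at about 5.5% in these data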;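 further: 0% = DMSO wells median and 100% = median of wells with control inhibitor compound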
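assay system = parasite MetRS enzyme | timing = 15 min preincubation, 2 h reaction, all 25 °C | evaluation = percent inhibition relative to median high and low control wells | medium = HEPES buffer containing pyrophosphatase, BSA, spermine, DTT | compound = single dose, 11.9 µM final nominal, 0.9% final DMSO | detection = Kinase-Glo luminescence, ATP depletion format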
Arr AP2 CP1: blocks beta-arrestin peptide binding to human AP2; shares compounds with Arrestin-AP2 inh; GST-AP2 beads, FITC arrestin peptide binding, flow cytometry; GST-fused beta2-adaptin appendage, R879A mutant; inhibition, % at 10 µM; hit rate 2% among 1,300;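 active means inhibition above a set limit, roughly 3 SD of non-fluorescent compound noise, cut at about 38% in these data; inactive means inhibition at or below that limit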;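 further: loss of bead fluorescence from 50 nM FITC arrestin peptide bound to appendage; 0% = negative control wells and 100% = excess unlabelled arrestin peptide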
GST-FITC bead: counter-screen for beta-arrestin AP2 inhibitors: GST-GSH bead binding; shares compounds with Arrestin-AP2 inh; GST-fluorescein binding to GSH beads, fluorescence; inhibition, % at 10 µM; hit rate 2% among 1,300; AID 588338;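 active means inhibition above 50%, about 3 SD of the inhibition seen with non-fluorescent compounds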;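 further: fluorescein maleimide labelled GST captured on 4 micron glutathione beads; higher means more loss of bead fluorescence from quenching or blocked binding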
* hit, by the source's call; i = inactive; nt = no result given.

1) C[C@H]1CN([C@@H](C)CO)C(=O)c2cc(NS(=O)(=O)c3ccc(F)cc3)ccc2O[C@H]1CN(C)Cc1ccc(C(F)(F)F)cc1
2) NC(=O)CSc1nc2c(c(=O)n1-c1ccccc1)C1(CCCCC1)Cc1ccccc1-2
3) C[C@H](CO)N1C[C@H](C)[C@H](CN(C)Cc2ccc(C(=O)O)cc2)Oc2c(cccc2N(C)C)C1=O
4) CCCn1c(NC(=S)Nc2ccccc2)nc2ccccc21
5) Cc1nc(C)c(C(=O)O)c(-c2cccs2)c1C(=O)O
6) O=C(O)c1csc(-c2cccs2)n1

Compound	1	2	3	4	5	6
Rce1 inh	nt	i	nt	i	i	i
Arrestin-AP2 inh	nt	63*	nt	63*	74*	11
GST-FITC bead	nt	-6	nt	4	-3	nt
TbMetRS inhib	nt	-1	nt	-1	-1	0
Pemphigus Ab inh	nt	99	nt	97	101	117
Arr AP2 CP1	nt	-10	nt	-14	-8	nt
UUG fidelity	1	nt	-11	-6	4	-12

7) Cc1ccc2nc(SCC(=O)Nc3ccc(C)c(Cl)c3)nc(=O)n2c1
8) Cc1ccc2nc(SCC(=O)Nc3ccc(Br)cc3)nc(=O)n2c1
9) C[C@H](CO)N1C[C@H](C)[C@@H](CN(C)S(=O)(=O)c2ccc(C#N)cc2)OCc2ccccc2-c2c(n(C)c3ccccc23)C1=O
10) Cc1ccc(S(=O)(=O)N(C)C[C@H]2Oc3c(NC(=O)c4ccncc4)cccc3C(=O)N([C@H](C)CO)C[C@@H]2C)cc1
11) O=[N+]([O-])c1ccc(NC(=S)N2CCN(S(=O)(=O)c3ccccc3)CC2)cc1
12) O=S(=O)(c1ccccc1)N1CCN(C(=S)Nc2ccc(Br)cc2)CC1

Compound	7	8	9	10	11	12
Rce1 inh	i	i	nt	nt	i	i
Arrestin-AP2 inh	-8	56*	nt	nt	71*	-2
GST-FITC bead	nt	-1	nt	nt	-9	nt
TbMetRS inhib	0	-1	nt	nt	0	0
Pemphigus Ab inh	102	114	nt	nt	108	112
Arr AP2 CP1	nt	-10	nt	nt	-14	nt
UUG fidelity	nt	-12	13	-8	-15	-17

Quoted at random: 4 records from the list
9) C[C@H](CO)N1C[C@H](C)[C@@H](CN(C)S(=O)(=O)c2ccc(C#N)cc2)OCc2ccccc2-c2c(n(C)c3ccccc23)C1=O
4) CCCn1c(NC(=S)Nc2ccccc2)nc2ccccc21
3) C[C@H](CO)N1C[C@H](C)[C@H](CN(C)Cc2ccc(C(=O)O)cc2)Oc2c(cccc2N(C)C)C1=O
11) O=[N+]([O-])c1ccc(NC(=S)N2CCN(S(=O)(=O)c3ccccc3)CC2)cc1

Compound	9	4	3	11
Rce1 inh	nt	i	nt	i
Arrestin-AP2 inh	nt	63*	nt	71*
GST-FITC bead	nt	4	nt	-9
TbMetRS inhib	nt	-1	nt	0
Pemphigus Ab inh	nt	97	nt	108
Arr AP2 CP1	nt	-14	nt	-14
UUG fidelity	13	-6	-11	-15

Next section
13) c1ccc2c(c1)c1ccccc1n2CN1CCOCC1
14) CO[C@H]1CN(C)C(=O)c2cc(NC(=O)Nc3cc(F)ccc3F)ccc2OC[C@H](C)N(C(=O)c2cnccn2)C[C@@H]1C
15) C[C@@H]1CCCCO[C@H](CN(C)C(=O)CCC(F)(F)F)[C@@H](C)CN([C@@H](C)CO)C(=O)c2cc(NS(=O)(=O)c3ccccc3)ccc2O1
16) CCc1ccc(NC(=O)Nc2ccon2)cc1
17) CCCCc1ccc(NC(=O)NCc2ccccn2)cc1
18) CCCCc1ccc(NC(=O)Nc2cnccn2)cc1

Compound	13	14	15	16	17	18
Rce1 inh	i	nt	nt	i	i	i
Arrestin-AP2 inh	83*	nt	nt	4	-4	1
GST-FITC bead	-9	nt	nt	nt	nt	-5
TbMetRS inhib	0	nt	nt	0	0	1
Pemphigus Ab inh	97	nt	nt	107	104	109
Arr AP2 CP1	-1	nt	nt	nt	nt	23
UUG fidelity	nt	-11	1	1	-22	-12

19) CCc1ccc(NC(=O)Nc2cnccn2)cc1
20) COc1ccc(CN(C)C[C@H]2Oc3ccc(NC(=O)Cn4cnnn4)cc3CC(=O)N([C@H](C)CO)C[C@@H]2C)cc1
21) Cc1ccc(S(=O)(=O)N[C@H]2CC[C@@H](CC(=O)NCc3ccncn3)O[C@H]2CO)cc1
22) O=[N+]([O-])c1cc(S(=O)(=O)N2CCCC2)ccc1N/N=C/c1cccnc1
23) CCC1(c2ccccc2)NC(=O)N(CC(=O)Nc2ccc3c(c2)OCO3)C1=O (stereo not given)
24) CCCC1(c2ccccc2)NC(=O)N(CC(=O)Nc2ccc3c(c2)OCCO3)C1=O (stereo not given)

Compound	19	20	21	22	23	24
Rce1 inh	i	nt	nt	i	i	nt
Arrestin-AP2 inh	-2	nt	nt	70*	-4	65*
GST-FITC bead	0	nt	nt	28	nt	1
TbMetRS inhib	0	nt	nt	0	0	0
Pemphigus Ab inh	109	nt	nt	101	101	101
Arr AP2 CP1	6	nt	nt	17	nt	20
UUG fidelity	-16	-5	-7	-5	-3	-5

25) COC(=O)C[C@H]1CC[C@H]2[C@H](COc3ccc(NC(=O)c4cccc(OC)c4)cc3C(=O)N2C)O1
26) Cn1nc(C(=O)N2CCN(c3ccc(Cl)cc3)CC2)c2c1-c1ccccc1S(=O)(=O)C2
27) Cc1cc(C)c(NC(=O)CSc2nnc(SCC(=O)Nc3c(C)cc(C)cc3C)n2N)c(C)c1
28) C[C@H]1CN([C@@H](C)CO)C(=O)c2cc(NS(=O)(=O)c3ccccc3)ccc2O[C@H]1CN(C)Cc1ccc(C(=O)O)cc1
29) O=C(c1ccc(S(=O)(=O)NCc2ccco2)cc1)N1CCN(c2ccc(F)cc2)CC1
30) CC(=O)c1ccc(N2CCN(C(=O)c3ccc(S(=O)(=O)NCc4ccco4)cc3)CC2)cc1

Compound	25	26	27	28	29	30
Rce1 inh	nt	i	i	nt	nt	nt
Arrestin-AP2 inh	nt	55*	91*	nt	59*	-9
GST-FITC bead	nt	-14	-9	nt	-10	-5
TbMetRS inhib	nt	0	0	nt	0	0
Pemphigus Ab inh	nt	99	99	nt	99	102
Arr AP2 CP1	nt	-7	-8	nt	5	3
UUG fidelity	13	-7	4	18	-12	-12

31) O=C(/C=C/c1ccc(S(=O)(=O)NCc2ccco2)cc1)N1CCN(c2ccccc2)CC1
32) CCCC#Cc1cnc2c(c1)C(=O)N([C@@H](C)CO)C[C@H](C)[C@H](CN(C)C(=O)c1ccccc1)O2
33) Cc1cnc(C(=O)Nc2ccc(N3CCCCC3)cc2)cn1
34) Cc1cnc(C(=O)Nc2ccc(OC(F)(F)F)cc2)cn1
35) O=C1C2C3C=CC(C3)C2C(=O)N1c1cccc2cccnc12 (stereo not given)
36) O=C1c2ccccc2C(=O)N1c1cccc2cccnc12

Compound	31	32	33	34	35	36
Rce1 inh	i	nt	i	i	nt	i
Arrestin-AP2 inh	-12	nt	2	55*	-2	58*
GST-FITC bead	nt	nt	nt	-16	nt	-5
TbMetRS inhib	0	nt	-1	-1	-1	-1
Pemphigus Ab inh	108	nt	103	118	nt	134
Arr AP2 CP1	nt	nt	nt	5	nt	-4
UUG fidelity	-4	2	nt	2	-24	nt

37) C[C@@H]1CCCCO[C@H](CN(C)C(=O)Nc2ccc3c(c2)OCO3)[C@@H](C)CN([C@@H](C)CO)C(=O)c2cc(NC(=O)CCCN(C)C)ccc2O1
38) CC(C(=O)Nc1ccc2c(c1)OCCO2)c1ccc([N+](=O)[O-])cc1 (stereo not given)
39) CC(C(=O)Nc1ccc2c(c1)OCO2)c1ccc([N+](=O)[O-])cc1 (stereo not given)
40) CN(C)c1ccc(S(=O)(=O)N2CCCCC2)cc1NC(=O)CN1C(=O)NC(C)(c2ccccc2)C1=O (stereo not given)
41) CN(C)c1ccc(S(=O)(=O)N2CCCCC2)cc1NC(=O)CN1C(=O)NC2(CCCC2)C1=O
42) CCCS(=O)(=O)c1nc(S(=O)(=O)c2ccc(C)cc2)c(N2CCC(C(N)=O)CC2)s1
43) CCCS(=O)(=O)c1nc(S(=O)(=O)c2ccc(C)cc2)c(N2CCC(O)CC2)s1
44) CN1CCCCN2[C@@H](CO)[C@H](c3ccc(-c4ccc(F)cc4)cc3)[C@@H]2C1

Compound	37	38	39	40	41	42	43	44
Rce1 inh	nt	i	i	nt	i	i	i	nt
Arrestin-AP2 inh	nt	-1	65*	0	54*	61*	-13	nt
GST-FITC bead	nt	nt	-2	nt	-9	-6	nt	nt
TbMetRS inhib	nt	-1	0	0	-1	0	0	nt
Pemphigus Ab inh	nt	110	83	120	105	nt	98	nt
Arr AP2 CP1	nt	nt	2	nt	1	-4	nt	nt
UUG fidelity	4	nt	nt	5	nt	-6	17	-11

Screening data: PubChem, several laboratories
